For assay [1], the system named is HEK293 (human embryonic kidney) cells transfected with plasmid expressing ORF10.
Assay [2] has as its system interferon and interferon-induced antiviral effector gene expression in cells transfected with pCMV-3Tag-3A control vector. It counts as cell-based, human.

Data on one compound can be found in patent publication US20240226120A1 (priority 2020, published 2024).

As for `C=C(C)[C@@H]1CCC(C)=C[C@H]1c1c(O)cc(CCCCC)cc1O` [Cannabidiol, 2-[(1R,6R)-3-Methyl-6-(1-methylethenyl)-2-cyclohexen-1-yl]-5-pentyl-1,3-benzenediol], in assay [1], the “apoptosis (early and late)” value is “significantly greater extent”; the “augmentation of the apoptotic response to ORF10 expression” value is on record as “not significant”. For the same compound, in assay [2], the IFIT1 expression result is recorded as “significantly increases”, the Mx1 expression result is “exhibited expression” and the “interferons lambda 2/3 expression” value is reported as “did not cause an induction”.
